Results reported in patent US12365850B2, “Water-miscible functional fluid, undiluted stock of water-miscible functional fluid, sterilizer for water-miscible functional fluid, and method of sterilizing water-miscible function fluid” (priority 2020, dated 2025).

Experiment: pH drop suppression test of water-miscible cutting fluid (circulation and blue LED irradiation)
Format: physicochemical

CCCCOP(OCCCC)OCCCC
pH change rate (%) (100%×(pH at preparation−pH after continuing use)/(pH at preparation), riboflavin cutting fluid with the named antioxidant): 4.7% | Evaluation of pH drop supression (class by pH change rate, riboflavin cutting fluid with the named antioxidant): A (pH change rate of 15% or lower) | pH change (riboflavin cutting fluid containing the named antioxidant, one month, Table 3 (same values as Table 2)): 0.4
